Literature values, collected in patent US20240108688A1, “Inhibitors of the tissue factor-protease activated receptor 2 (TF-PAR2) signaling pathway for use in the treatment or prevention of heart failure (HF) and associated or resulting diseases” (priority 2020, published 2024).

Details: long-term high-dose regimens in cancer therapy; cited from earlier work

For `CC(=O)Nc1cccc(-n2c(=O)n(C3CC3)c(=O)c3c(Nc4ccc(I)cc4F)n(C)c(=O)c(C)c32)c1` [trametinib, reference compound], the cardiac side effects is listed as “cardiotoxic side effects”.
